According to ChEMBL document CHEMBL4376859, “Prodrugs for nitroreductase-based cancer therapy-3: Antitumor activity of the novel dinitroaniline prodrugs/Ssap-NtrB enzyme suicide gene system: Synthesis, in vitro and in silico evaluation in prostate cancer” (Eur J Med Chem, 2020):
Activity calls are given as the source filed them. No cut-off for these calls is given here.

Tested on: PC-3
Test: Cytotoxicity against human PC3 cells assessed as reduction in cell viability after 48 hrs by SRB assay
Type: functional, cell-based
Outline: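 Compounds were reduced outside the cells by purified His-tag (Ni column) Ssap-NtrB. The reaction mix held 600 µM NADH and compound (150, 39, 9 µM, or 180, 18, 1.8 nM) and was applied to PC-3 cells. Controls were compound alone in 25 mM Tris/HCl pH 7.5, and enzyme alone at 31 µg/mL. After 48 h, SRB absorbance was read at 492 nm and converted to % viability.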

SMILES | Activity
O=[N+]([O-])c1ccc(NCCCCNc2ccc([N+](=O)[O-])cc2[N+](=O)[O-])c([N+](=O)[O-])c1 | inactive
Nc1ccc(Nc2ccc([N+](=O)[O-])cc2[N+](=O)[O-])c([N+](=O)[O-])c1 | inactive
O=[N+]([O-])c1ccc(NC2CCC(Nc3ccc([N+](=O)[O-])cc3[N+](=O)[O-])CC2)c([N+](=O)[O-])c1 (configuration not stated) | inactive
O=[N+]([O-])c1ccc(NC2CCCC(Nc3ccc([N+](=O)[O-])cc3[N+](=O)[O-])C2)c([N+](=O)[O-])c1 (configuration not stated) | inactive
O=[N+]([O-])c1ccc(Nc2ccc([N+](=O)[O-])cc2[N+](=O)[O-])c(Nc2ccc([N+](=O)[O-])cc2[N+](=O)[O-])c1 | inactive
O=[N+]([O-])c1ccc(Nc2cccc(Nc3ccc([N+](=O)[O-])cc3[N+](=O)[O-])c2)c([N+](=O)[O-])c1 | inactive
O=[N+]([O-])c1ccc(N2CCN(c3ccc([N+](=O)[O-])cc3[N+](=O)[O-])CC2)c([N+](=O)[O-])c1 | inactive
O=[N+]([O-])c1ccc(NCCNc2ccc([N+](=O)[O-])cc2[N+](=O)[O-])c([N+](=O)[O-])c1 | inactive
O=[N+]([O-])c1ccc(Nc2ccc(Nc3ccc([N+](=O)[O-])cc3[N+](=O)[O-])cc2)c([N+](=O)[O-])c1 | inactive
O=[N+]([O-])c1ccc(NC2CCCCC2Nc2ccc([N+](=O)[O-])cc2[N+](=O)[O-])c([N+](=O)[O-])c1 (configuration not stated) | inactive
O=[N+]([O-])c1cccc(Nc2ccc([N+](=O)[O-])cc2[N+](=O)[O-])c1 | inactive
O=[N+]([O-])c1ccc(Nc2ccc([N+](=O)[O-])cc2[N+](=O)[O-])cc1 | inactive
